System: biocontrol strain ST15
Assay type: cell-based, Bacillus altitudinis
Also: key: +: not sensitive; −: sensitive.

Sodium bromate
chemical sensitivity of strain ST15: +

From US20230059898A1 (priority 2020, published 2023)
